We go through six compounds from PubChem BioAssay (NCI).

The nature of the experiment: NCI Yeast Anticancer Drug Screen. Data for the rad50EPP+ strain (AID 151).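 Also: 0% = growth of vehicle-treated control cultures.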 The note with it: S. cerevisiae rad50 mutant strain, stronger effect = higher value. As to the method:
Growth inhibition of yeast strains with defined genetic alterations is measured as a screen for potential anti-cancer activity. Selected strains with alterations in DNA damage repair or cell cycle control were exposed to compounds and growth inhibition was measured relative to vehicle treated controls. The strain used in this assay is rad50EPP+

Molecules are shown by their SMILES. This is a selection; strong and weak results do not stand in their true shares. The source holds several records for some structures; these can differ, active in one and inactive in another. Active and inactive are the calls of the source. Rule as the data show it: active = growth inhibition above about 70%; inactive = the rest.

Take `COc1ccc(C[N+](C)(CCCl)CCCl)c([N+](=O)[O-])c1`: the growth inhibition is inactive: 62% (at 1.2 µM); inactive: 66% (at 3.7 µM); active: 81% (at 11.0 µM); active: 88% (at 33.0 µM); active: 90% (at 100.0 µM).
Taken in the same sequence, the figures for `COc1ccc([N+](=O)[O-])c(C[N+](C)(CCCl)CCCl)c1` were inactive: 11%, inactive: 37%, inactive: 64%, active: 94% and active: 96%.
For `ClCCN1CCCCC1CCl` (stereo not given), the growth inhibition is inactive: 0% (at 1.2 µM); inactive: 5% (at 3.7 µM); inactive: 30% (at 11.0 µM); active: 82% (at 33.0 µM); active: 96% (at 100.0 µM).
Taken in the same sequence, the figures for `Cn1cnc([N+](=O)[O-])c1C[N+](C)(CCCl)CCCl` were inactive: 14%, inactive: 47%, active: 88%, active: 94% and active: 96%.
On the same counts, the results for `Cc1cccc(C[N+](C)(CCCl)CCCl)c1[N+](=O)[O-]` are inactive: 29%, inactive: 59%, active: 93%, active: 97% and active: 97%.
On the same counts, the results for `Cc1ccc([N+](=O)[O-])c(C[N+](C)(CCCl)CCCl)c1` are inactive: 22%, inactive: 66%, active: 93%, active: 96% and active: 97%.
